Results published in patent publication US20120207856A1, “MSH3 Expression Status Determines the Responsiveness of Cancer Cells to the Chemotherapeutic Treatment with PARP Inhibitors and Platinum Drugs” (Baylor Research Institute, priority 2011, published 2012).

Test system: HCT116+3+5 and G5 cells
Assay: Clonogenic survival after MLH1 siRNA transfection
Assay type: cell-based, human
Settings: HCT116+3+5 and G5 transfected with MLH1 siRNA versus untreated control cell lines; FIG. 4B

N-Methyl-N-Nitro-N-Nitrosoguanidine
resistance (clonogenic survival): more resistant
